pIC50: −log10 of the molar value.

Sequences of proteins named here, by UniProt entry; tags and fusion partners are left off.
UniProt P23977, whole entry: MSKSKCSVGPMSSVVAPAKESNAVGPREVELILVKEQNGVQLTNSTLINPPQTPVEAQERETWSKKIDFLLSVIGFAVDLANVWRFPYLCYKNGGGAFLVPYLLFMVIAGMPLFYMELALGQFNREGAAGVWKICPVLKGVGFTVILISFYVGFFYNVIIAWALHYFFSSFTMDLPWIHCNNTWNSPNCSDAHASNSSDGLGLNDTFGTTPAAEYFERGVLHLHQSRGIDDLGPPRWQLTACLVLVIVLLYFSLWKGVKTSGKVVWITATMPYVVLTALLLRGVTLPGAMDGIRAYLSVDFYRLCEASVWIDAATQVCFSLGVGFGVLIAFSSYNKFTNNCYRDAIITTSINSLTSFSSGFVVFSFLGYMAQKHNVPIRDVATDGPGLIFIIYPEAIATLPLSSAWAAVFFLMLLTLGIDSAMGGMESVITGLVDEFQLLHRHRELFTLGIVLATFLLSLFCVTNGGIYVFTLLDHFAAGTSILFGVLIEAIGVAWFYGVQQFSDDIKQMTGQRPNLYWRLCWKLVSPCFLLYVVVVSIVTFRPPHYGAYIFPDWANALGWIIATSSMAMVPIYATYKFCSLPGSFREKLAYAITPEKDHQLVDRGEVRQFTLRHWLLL
UniProt Q63380, entry or part of it: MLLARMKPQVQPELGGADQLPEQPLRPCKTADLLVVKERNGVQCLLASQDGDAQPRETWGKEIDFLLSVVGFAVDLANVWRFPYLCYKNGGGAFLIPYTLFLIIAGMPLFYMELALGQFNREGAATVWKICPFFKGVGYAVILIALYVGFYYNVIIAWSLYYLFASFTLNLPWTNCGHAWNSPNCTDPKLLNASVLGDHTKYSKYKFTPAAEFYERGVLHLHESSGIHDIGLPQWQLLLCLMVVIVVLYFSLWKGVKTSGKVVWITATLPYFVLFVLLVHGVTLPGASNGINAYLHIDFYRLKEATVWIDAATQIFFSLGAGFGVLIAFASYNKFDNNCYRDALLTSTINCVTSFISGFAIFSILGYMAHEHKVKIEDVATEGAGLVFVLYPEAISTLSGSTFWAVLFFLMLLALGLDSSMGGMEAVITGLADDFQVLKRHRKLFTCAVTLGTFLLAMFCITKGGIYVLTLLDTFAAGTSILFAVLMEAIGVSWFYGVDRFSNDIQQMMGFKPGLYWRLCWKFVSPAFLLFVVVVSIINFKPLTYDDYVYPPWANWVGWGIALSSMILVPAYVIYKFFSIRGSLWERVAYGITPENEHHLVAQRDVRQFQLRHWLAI
UniProt P31652, whole entry: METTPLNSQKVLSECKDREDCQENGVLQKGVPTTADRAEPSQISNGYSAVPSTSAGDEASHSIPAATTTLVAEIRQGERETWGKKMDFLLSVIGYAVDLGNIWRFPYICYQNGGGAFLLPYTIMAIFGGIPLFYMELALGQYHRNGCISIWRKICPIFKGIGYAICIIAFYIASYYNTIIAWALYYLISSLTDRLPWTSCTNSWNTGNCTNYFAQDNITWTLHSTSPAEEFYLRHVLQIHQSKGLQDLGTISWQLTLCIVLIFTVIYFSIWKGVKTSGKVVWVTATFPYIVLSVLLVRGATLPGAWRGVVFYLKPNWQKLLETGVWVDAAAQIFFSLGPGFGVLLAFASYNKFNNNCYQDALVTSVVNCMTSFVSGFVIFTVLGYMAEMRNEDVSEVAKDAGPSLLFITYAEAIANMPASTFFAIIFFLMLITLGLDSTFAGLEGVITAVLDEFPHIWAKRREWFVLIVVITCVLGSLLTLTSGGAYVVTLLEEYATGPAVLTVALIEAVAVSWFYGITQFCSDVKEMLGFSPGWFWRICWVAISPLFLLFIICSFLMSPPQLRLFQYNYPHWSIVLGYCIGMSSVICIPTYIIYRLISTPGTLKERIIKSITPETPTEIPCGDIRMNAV

Holding throughout (format): biochemical
The target of test [1] is T1, reuptake of dopamine (DA) in synaptosomes (Rattus norvegicus, UniProt P23977).
T1 construct: in synaptosomes as described in WO 97/16451; from tissue
The test can be described thus: In vitro inhibition of dopamine reuptake in synaptosomes. The conditions noted are these: 3H-DA, read-out: DA-uptake IC50. How it is done:
(§1) A number of compounds were tested for their ability to Inhibit the reuptake of the monoamine neurotransmitters dopamine (DA) noradrenaline(NA) and serotonin (5-HT) in synaptosomes as described in WO 97/16451.
(§2) The test values are given as IC50 (the concentration (μM) of the test substance which inhibits the specific binding of ^3H-DA, ^3H-NA, or 3H-5-HT by 50%).

The target in test [2] is reuptake of noradrenaline (NA) in synaptosomes (Rattus norvegicus, UniProt Q63380). Briefly: In vitro inhibition of noradrenaline reuptake in synaptosomes. The conditions noted are these: 3H-NA, read-out: NA-uptake IC50. The procedure:
as §1, §2

In test [3] the target is T2, reuptake of serotonin (5-HT) in synaptosomes (Rattus norvegicus, UniProt P31652).
T2 construct: in synaptosomes as described in WO 97/16451; from tissue
The test can be described thus: In vitro inhibition of serotonin reuptake in synaptosomes. The conditions noted are these: 3H-5-HT, read-out: 5-HT-uptake IC50. The procedure:
as §1, §2

In the case of “(2R,3S)-2-(1-Naphthaleneoxymethyl)-8-methyl-3-(3-chlorophenyl)-8-aza-bicyclo[3.2.1]octane fumaric acid salt [2nd compound of method D]”, the pIC50 (usually the IC50 on a negative log10 scale, so that one unit is a factor of ten) in test [1] is 7.19; in test [2] it was 6.82; in test [3] it was 8.20.

The values are drawn from US7250425B2, “8-aza-bicyclo[3.2.1]octane derivatives and their use as monoamine neurotransmitter re-uptake inhibitors” (priority 2003, dated 2007).
